Data reported in patent US10696631B2, “Chemical conjugates of evans blue derivatives and their use as radiotherapy and imaging agents” (priority 2016, dated 2020).

The chains behind the UniProt entries cited, without tags or fusion partners. Residues count along the entry.
UniProt P02768, 25-609: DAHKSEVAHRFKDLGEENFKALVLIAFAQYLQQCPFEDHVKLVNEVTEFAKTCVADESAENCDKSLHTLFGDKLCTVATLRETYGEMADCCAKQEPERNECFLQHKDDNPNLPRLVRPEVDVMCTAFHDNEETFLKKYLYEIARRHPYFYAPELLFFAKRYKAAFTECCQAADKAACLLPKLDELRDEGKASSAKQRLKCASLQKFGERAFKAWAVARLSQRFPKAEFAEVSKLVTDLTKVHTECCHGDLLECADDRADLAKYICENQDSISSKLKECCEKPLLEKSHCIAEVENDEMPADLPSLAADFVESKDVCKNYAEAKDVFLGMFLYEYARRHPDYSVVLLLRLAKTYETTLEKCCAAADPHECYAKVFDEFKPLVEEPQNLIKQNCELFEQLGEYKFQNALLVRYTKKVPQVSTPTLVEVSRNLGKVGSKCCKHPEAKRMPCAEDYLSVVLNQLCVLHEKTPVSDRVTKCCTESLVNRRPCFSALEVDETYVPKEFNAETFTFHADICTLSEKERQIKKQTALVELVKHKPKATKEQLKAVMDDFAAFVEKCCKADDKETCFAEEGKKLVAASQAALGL

Tests used:
albumin = albumin (Homo sapiens, UniProt P02768); conditions: read-out: published binding affinity to albumin; cited from earlier work
[1] = MicroPET imaging and biodistribution in U87MG xenografts; conditions: female, athymic nude, mouse, in vivo

Row | SMILES | Kd (albumin) | tissue uptake ([1]; tumor accumulation, U87MG xenografts, all time points) | tissue uptake at 24 h ([1]; uptake in the blood, 24 h p.i.) | tissue uptake ([1]; uptake in the blood, up to 4 h p.i.)
1 | Cc1cc(-c2ccc(/N=N/c3ccc4c(S(=O)(=O)O)cc(S(=O)(=O)O)c(N)c4c3O)c(C)c2)ccc1/N=N/c1ccc2c(S(=O)(=O)O)cc(S(=O)(=O)O)c(N)c2c1O [Evans Blue] | ~2500 nM | – | – | –
2 | Cc1cc(-c2ccc(NC(=O)[C@@H](CCCCNC(=O)CCN3C(=O)CC(SCC(=O)NCCCC[C@H]4NC(=O)[C@H](Cc5ccc(O)cc5)NC(=O)[C@H](CC(=O)O)NC(=O)C(C)NC(=O)[C@H](CCCNC(=N)N)NC4=O)C3=O)NC(=O)CN3CCN(CC(=O)O)CCN(CC(=O)O)CC3)c(C)c2)ccc1/N=N/c1ccc2c(S(=O)(=O)O)cc(S(=O)(=O)O)c(N)c2c1O (stereo partly shown) [64Cu-NMEB-RAD, metal not drawn, reference compound] | – | ~6 %ID/g | 3.7 ± 0.3 %ID/g | 10 to 12 %ID/g
